Here are results for seven compounds from PubChem BioAssay (NCATS).

By UniProt entry, the sequences of proteins in these tests, tags left out.
UniProt Q07869, whole entry: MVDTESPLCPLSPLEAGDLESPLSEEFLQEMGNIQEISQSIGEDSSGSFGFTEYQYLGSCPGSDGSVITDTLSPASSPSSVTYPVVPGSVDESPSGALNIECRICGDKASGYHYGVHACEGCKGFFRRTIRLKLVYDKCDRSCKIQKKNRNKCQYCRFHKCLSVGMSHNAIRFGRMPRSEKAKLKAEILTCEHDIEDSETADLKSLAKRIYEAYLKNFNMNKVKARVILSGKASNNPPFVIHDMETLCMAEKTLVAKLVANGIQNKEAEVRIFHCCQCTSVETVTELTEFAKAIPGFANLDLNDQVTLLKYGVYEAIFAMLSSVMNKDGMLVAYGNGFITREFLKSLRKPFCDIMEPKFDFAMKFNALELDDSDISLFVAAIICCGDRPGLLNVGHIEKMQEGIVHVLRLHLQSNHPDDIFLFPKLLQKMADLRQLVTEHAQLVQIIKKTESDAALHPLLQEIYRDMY
UniProt P51449, whole entry: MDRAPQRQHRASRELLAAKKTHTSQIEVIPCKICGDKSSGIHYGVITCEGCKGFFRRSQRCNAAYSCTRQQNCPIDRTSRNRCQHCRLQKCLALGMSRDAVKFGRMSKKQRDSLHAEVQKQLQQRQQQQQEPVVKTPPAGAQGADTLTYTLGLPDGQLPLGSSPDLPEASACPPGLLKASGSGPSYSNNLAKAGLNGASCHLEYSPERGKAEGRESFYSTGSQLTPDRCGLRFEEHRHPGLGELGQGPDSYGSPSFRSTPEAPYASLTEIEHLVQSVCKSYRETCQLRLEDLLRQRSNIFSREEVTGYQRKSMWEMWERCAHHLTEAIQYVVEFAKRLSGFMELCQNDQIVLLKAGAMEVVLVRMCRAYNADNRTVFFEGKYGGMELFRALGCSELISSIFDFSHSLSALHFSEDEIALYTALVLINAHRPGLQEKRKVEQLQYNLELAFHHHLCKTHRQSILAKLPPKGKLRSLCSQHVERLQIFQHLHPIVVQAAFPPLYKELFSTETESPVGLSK

SMILES strings stand for the structures. Where “and” joins values, the source holds several entries; their conditions need not be identical. Identical values can stand only once. The entries are a selection whose mix differs from that of the whole data set. Results filed as inconclusive are left out. Calls of active or inactive are those of the source. Unless noted, the call rests on the fitted dose curve; in most records, active means well fitted curve in the direction sought with a large enough effect; inconclusive means small, poorly fitted or top-dose-only effect, or another doubt; inactive means no such curve, though single readings can be large; an effect the other way counts as inactive or inconclusive.

For assay [1], the target named is Peroxisome proliferator-activated receptor alpha (Homo sapiens) (UniProt Q07869). Put plainly: qHTS assay for small molecule agonists of the peroxisome proliferator-activated receptor alpha (PPARalpha) signaling pathway (AID 651778). Further: % of control where 0% means no effect. Conditions: PathHunter PPARalpha complementation, chemiluminescence, 6 h; stronger effect = higher value. The procedure, abridged:
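Chemiluminescence from complemented enzyme reported PPARalpha activation in cells after 6 hr of compound treatment at 37 C. The detection reagent was incubated for 60 min at room temperature, and compounds were scored as agonists.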
(qHTS replaces the single test concentration by a dilution series.)

For assay [2], the target named is Nuclear receptor ROR-gamma (Homo sapiens) (UniProt P51449). Put plainly: qHTS assay for small molecule antagonists of the retinoid-related orphan receptor gamma (ROR-gamma) signaling pathway (AID 651802).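 Further: CHO cells with doxycycline-induced ROR-gamma expression; luciferase reporter luminescence driven by ROR response element; on the % scale 0 is the no-effect control and ±100 the full control effect; nearly all actives have a fitted effect of over 60% in size.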 Conditions: ROR-gamma antagonist cell reporter assay; at 92.2 µM (top of the series).
Assay [3] can be described thus: qHTS assay for small molecule agonists of the antioxidant response element (ARE) signaling pathway measured by Nrf2-dependant transcriptional activity (AID 720636; active means well fitted curve in the direction sought with a large enough effect in the repeat runs; an effect the other way counts as inactive or inconclusive; further: % of control where 0% means no effect). Conditions: ARE-luc HepG2, Nrf2 luciferase reporter, 16 h; at 92.4 µM (top of the series). The procedure, abridged: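 In HepG2 cells engineered with an Nrf2-responsive luciferase gene, ARE induction was quantified as luminescence after 16 hr compound treatment at 37 C.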

Assay [4] in a line: qHTS assay for small molecule antagonists of the retinoid-related orphan receptor gamma (ROR-gamma) signaling pathway - cell viability counter screen (AID 720652; active means well fitted curve in the direction sought with a large enough effect in the repeat runs; an effect the other way counts as inactive or inconclusive;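 further: CHO reporter cells with doxycycline-induced ROR-gamma expression; compound exposure lasted 16 hr before ATP read; on the % scale 0 is the no-effect control and ±100 the full control effect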). Conditions: RORgamma reporter cell line viability counter screen; at 92.2 µM (top of the series).
Assay [5] is described as follows: qHTS assay for small molecule agonists of the antioxidant response element (ARE) signaling pathway measured by Nrf2-dependant transcriptional activity - cell viability counter screen (AID 720653; active means well fitted curve in the direction sought with a large enough effect in the repeat runs; an effect the other way counts as inactive or inconclusive; further: on the % scale 0 is the no-effect control and ±100 the full control effect). Conditions: ARE-bla HepG2 viability, CellTiter-Glo ATP luminescence, 16 h; stronger effect = lower value. Put shortly: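 Cytotoxicity counter screen: intracellular ATP quantified by CellTiter-Glo luminescence in the same ARE-bla HepG2 plates, after 16 h compound exposure and a 2 h beta-lactamase substrate step.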

Assay [6] in a line: qHTS assay for cell viability of HEK293 cells (AID 743288). Further: on the % scale 0 is the no-effect control and ±100 the full control effect; nearly all actives have a fitted effect of over 50% in size. Conditions: ATP luminescence (CellTiter-Glo), 18 h, stronger effect = lower value. The procedure, abridged: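 Readout is luciferase-coupled ATP content (CellTiter-Glo luminescence, 30 min room temperature) as a measure of metabolically competent cells. Parental HEK293 cells were plated 5 h or more before compound addition, then treated 18 h at 37 C.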

Assay [7] can be described thus: qHTS assay for cell viability of the p53RE-bla HCT-116 cell line (AID 743292). Further: on the % scale 0 is the no-effect control and ±100 the full control effect; nearly all actives have a fitted effect of over 55% in size. The conditions noted are these: p53RE-bla HCT-116 viability, ATP luminescence, 16 h; at 95 µM (top of the series). The procedure, abridged: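 Intracellular ATP of p53RE-bla HCT-116 cells measured by luciferase luminescence following 16 h compound incubation at 37 C; DMSO-only wells served as vehicle controls.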

Assay [8] can be described thus: qHTS of pediatric cancer cell lines to identify multiple opportunities for drug repurposing: Primary screen for TC32 cells (AID 1347089). Further: on the % scale 0 is the no-effect control and ±100 the full control effect; nearly all actives have a fitted effect of over 60% in size. Conditions: TC32 Ewing sarcoma viability, CellTiter-Glo luminescence, 48 h; at 45.8 µM (top of the series). The procedure, abridged: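 Luminescent ATP read-out (CellTiter-Glo) of metabolically active TC32 cells after 48 h exposure. Concentration-response curves came from 11-point (MIPE, 0.78 nM–46 µM) or 8-point (NPC, 0.59 nM–46 µM) primary titrations; follow-up used 11 points.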

A short description of assay [9]: qHTS of pediatric cancer cell lines to identify multiple opportunities for drug repurposing: Primary screen for DAOY cells (AID 1347090).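 Further: plate controls were DMSO for no effect and bortezomib for full effect; nearly all actives have a fitted effect of over 55% in size.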 Conditions: DAOY medulloblastoma viability, CellTiter-Glo luminescence, 48 h; at 46 µM (top of the series). The procedure, abridged:
(§1)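 Cell viability, CellTiter-Glo luminescence; 500-1,000 cells/well, 8- or 11-point titration, 48 h compound exposure at 37 degrees C, 5% CO2. Controls: DMSO neutral, bortezomib 2.3 µM final as positive.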

Assay [10] can be described thus: qHTS of pediatric cancer cell lines to identify multiple opportunities for drug repurposing: Primary screen for SJ-GBM2 cells (AID 1347091).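 Further: plate controls were DMSO neutral control for no effect and bortezomib for full effect.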 The conditions noted are these: SJ-GBM2 viability, CellTiter-Glo luminescence, 48 h; at 46 µM (top of the series). Put shortly: as §1
Assay [11] can be described thus: qHTS of pediatric cancer cell lines to identify multiple opportunities for drug repurposing: Primary screen for A673 cells (AID 1347092). Further: on the % scale 0 is the no-effect control and ±100 the full control effect; nearly all actives have a fitted effect of over 45% in size. The conditions noted are these: A673 Ewing sarcoma viability, CellTiter-Glo ATP luminescence, 48 h; at 46 µM (top of the series). The procedure, abridged: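 Cell viability of A673 measured by CellTiter-Glo ATP luminescence after 48 hours compound exposure. Dilution series spanned 0.78 nM to 46 µM (MIPE, 11-point) or 0.59 nM to 46 µM (NPC, 8-point); bortezomib 2.3 uM positive control.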

The nature of assay [12]: qHTS of pediatric cancer cell lines to identify multiple opportunities for drug repurposing: Primary screen for SK-N-MC cells (AID 1347093). Further: potency means the concentration at half of the fitted maximal effect.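 On activity change, negative = cytotoxic: plate controls were DMSO neutral control for no effect and bortezomib for full effect.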 The conditions noted are these: SK-N-MC viability, CellTiter-Glo luminescence, 48 h; series mostly up to 46 µM.
Assay [13] is described as follows: qHTS of pediatric cancer cell lines to identify multiple opportunities for drug repurposing: Primary screen for BT-37 cells (AID 1347094).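 Further: plate controls were DMSO for no effect and bortezomib for full effect.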 The conditions noted are these: BT-37 viability, CellTiter-Glo luminescence, 48 h; at 57.3 µM (top of the series). Put shortly:
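ATP-based luminescence (CellTiter-Glo) quantifies viability after a 48-hour exposure. Compounds are dosed across 8 or 11 final concentrations; DMSO and 2.3 µM bortezomib serve as controls.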

Assay [14] can be described thus: qHTS of pediatric cancer cell lines to identify multiple opportunities for drug repurposing: Primary screen for NB-EBc1 cells (AID 1347095).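 Further: plate controls were DMSO neutral control for no effect and bortezomib for full effect.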 Conditions: NB-EBc1 neuroblastoma viability, CellTiter-Glo luminescence, 48 h; at 46 µM (top of the series).
A short description of assay [15]: High-throughput drug toxicity screening in the BPDCN cell line Gen2.2 (AID 1224824; call rule not given here;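 further: cells exposed to compounds for 48 h before reading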). The conditions noted are these: Gen2.2 BPDCN cells; at 45.8 µM (top of the series). The procedure, abridged: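 CellTiter-Glo luminescence read after 48 h compound exposure at 37 C defines viability; percent activity set with DMSO as 100% and bortezomib (9.2 uM final) as 0%. 500 exponentially growing cells per well, RPMI plus 10% FBS.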

The nature of assay [16]: High-throughput drug toxicity screening in the BPDCN cell line Cal-1 (AID 1224825; call rule not given here). Conditions: Cal-1 BPDCN cell viability, qHTS; at 45.8 µM (top of the series). Put shortly:
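Percent activity derived from CellTiter-Glo luminescence, scaling DMSO to 100% and 9.2 uM final bortezomib to 0%. BPDCN Cal-1 cells (500/well, RPMI plus 10% FBS) incubated with compounds 48 hours at 37C before reading.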

Assay [17] is described as follows: qHTS Screen of the MIPE 4.0 Collection Against Ewings Sarcoma (RDES) (AID 1259252).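 Further: 100% = DMSO-treated cells and 0% = medium-only wells without cells; nearly all actives have a fitted effect of over 35% in size.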 The conditions noted are these: RD-ES Ewing sarcoma viability, CellTiter-Glo, 48 h; at 45.8 µM (top of the series). The procedure, abridged:
(§2)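 CellTiter-Glo luminescence after 48 h compound exposure (titration) gave viability; percent activity used DMSO-treated cells as no inhibition and medium-only wells as full inhibition. Cells grown in RPMI/5% FBS, dosed 4 h post-seeding.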

The nature of assay [18]: qHTS Screen of the MIPE 4.0 Collection Against Ewings Sarcoma (TC71) (AID 1259253).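 Further: 100% = DMSO-treated cells and 0% = medium-only wells without cells; nearly all actives have a fitted effect of over 40% in size.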 Conditions: TC71 Ewing sarcoma viability, CellTiter-Glo, 48 h; at 45.8 µM (top of the series). The procedure, abridged: as §2
Assay [19] in a line: qHTS Screen of the MIPE 4.0 Collection Against Ewings Sarcoma (TC32) (AID 1259256). Further: potency means the concentration at half of the fitted maximal effect; nearly all actives have a fitted effect of over 45% in size. Conditions: TC32 Ewing sarcoma viability, CellTiter-Glo, 48 h. Put shortly:
as §2

Assay [20] in a line: P-glycoprotein substrates identified in KB-8-5-11 adenocarcinoma cell line, qHTS therapeutic library screen (AID 1346987). Further: on the % scale 0 is the no-effect control and ±100 the full control effect; nearly all actives have a fitted effect of over 65% in size. Conditions: KB-8-5-11 (P-gp overexpressing) viability, CellTiter-Glo, 72 h; at 44.5 µM (top of the series). Put shortly:
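Compounds are pinned in dose-response onto KB-8-5-11 cells (500 cells/well, colchicine-free medium) and left 72 h at 37 degree C. CellTiter-Glo luminescence then yields AC50 values.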

Consider `CCOP(=O)(Cl)Cl`, for which the max response was inactive: -3.97% and inactive: -0.121% in [1]; inactive: -7.33% and inactive: 7.4% in assay [5]; inactive: 1.06% and inactive: -3.46% in assay [6]. In addition, the activity change, negative = inhibition in [2] is inactive: 15.3%. In [3], the activation is inactive: -0.0421% and inactive: 0.0101%. For the same compound, the activity change, negative = cytotoxicity is inactive: 2.8% in assay [4]; inactive: 7.13% and inactive: 6.26% in [7].

As for `O=[N+]([O-])c1ccccc1[N+](=O)[O-]`, the max response is inactive: 0.978% in assay [1], inactive: 5.72% in [5] and inactive: -5.55% in assay [6]. Besides, the activity change, negative = cytotoxicity in [7] is inactive: -4.04%.

Turning to `CCOC(=O)N1CCC(=O)CC1`, the activity change, negative = cytotoxic was inactive: 8.65% in assay [8]; inactive: 8.14% in [9]; inactive: 19.2% in assay [10]; inactive: 9.26% in assay [11]; inactive: 15.3% in assay [13]; inactive: 21.3% in assay [14]. Moreover, the Potency in assay [12] was active: 1 nM.

For `CCOC(=O)C(=O)CBr`, the cell viability, % of control (lower = more cytotoxic) in assay [15] is 116%. In addition, in [16], the viability (% of control) amounted to 87.3%. Also, the viability (percent of control) in [17] was inactive: 120%. The viability (% of DMSO) in [18] is inactive: 120%. For the same compound, the Potency in assay [19] is active: 4.7 nM. The activity change, negative = cytotoxicity in assay [20] is inactive: -0.609%. Also, the activity change, negative = cytotoxic in assay [8] is inactive: -2.01%; in assay [9] it was inactive: -10.6%; in [10] it was inactive: -4.58%; in [11], inactive: -28.9%; in [13] it was inactive: -0.426%; in assay [14], inactive: -7.09%. Further, in assay [12], the Potency entry was “inactive”.

As for `ClCCOP(OCCCl)OCCCl`, the figures for the max response in assay [1], in assay [5] and in [6] were inactive: -1.52%, inactive: 2.92% and inactive: 1.02%, respectively. Besides, the activity change, negative = inhibition in assay [2] was inactive: -20%. Also, the activation in assay [3] is inactive: -0.0969%. For the same compound, the activity change, negative = cytotoxicity in assay [4] is inactive: 15.6%; in assay [7], inactive: -4.13%.

As to `CC(=O)N1CCc2ccc(N(C(=O)/C=C/c3cccc(C#N)c3)C3CCN(CCC4CCCC4)CC3)cc21`, the activity change, negative = cytotoxicity in assay [20] is inactive: -20.8%.

For `CCC(=O)N(c1ccccc1)C1CCNCC1`, the activity change, negative = cytotoxic in [8] is inactive: -1.12%; in assay [9], inactive: -3.28%; in assay [10] it was inactive: 11.2%; in assay [11], inactive: -3.92%; in assay [13], inactive: 6.82%; in assay [14] it was inactive: 8.28%.
